Tests used:
PKCδ-C1B = PKCδ-C1B (Homo sapiens (Human), UniProt Q05655); assay: PKCδ-C1B Assay; type: binding; details: for activity in PKCδ-C1B assay relative to comparison analogues: 702.1 vs C26 methyl-containing analogue, 48, 49 vs other C20 esters; for Ki: read-out: PKCδ-C1B Assay Ki, competition with tritiated phorbol 12,13-dibutyrate
P388 cell line = assay: P388 Murine Lymphocytic Leukemia Cell Assay; details: for activity in P388 assay relative to comparison analogues: 702.1 vs C26 methyl-containing analogue, 48, 49 vs other C20 esters; for P388 Assay ED50: 5 days incubation, MTT

Sequences of proteins named here, by UniProt entry; tags and fusion partners are left off. A change or cut given only in a name is not applied to a line headed by its entry. Residues count along the entry.
UniProt Q05655, 230-280 limits assumed: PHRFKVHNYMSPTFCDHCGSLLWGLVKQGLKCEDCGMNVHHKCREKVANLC

## COC(=O)/C=C1\C[C@H]2C[C@H]([C@@H](C)O)OC(=O)C[C@H](O)C[C@@H]3CCC[C@H](C[C@@H]4CCO[C@H](/C=C/C(C)(C)[C@](O)(O2)[C@H]1OC(=O)c1ccccc1)O4)O3
PKCδ-C1B
  activity in PKCδ-C1B assay relative to comparison analogues: higher activity
  Ki: 1.7 nM
P388 cell line
  activity in P388 assay relative to comparison analogues: higher activity
  P388 Assay ED50: 42 nM

## CCCCCCCCCCCCCC(=O)O[C@H]1/C(=C/C(=O)OC)C[C@H]2C[C@H]([C@@H](C)O)OC(=O)C[C@H](O)C[C@@H]3CCC[C@H](C[C@@H]4CCO[C@H](/C=C/C(C)(C)[C@]1(O)O2)O4)O3
PKCδ-C1B
  activity in PKCδ-C1B assay relative to comparison analogues: higher activity
  Ki: 1.3 nM
P388 cell line
  activity in P388 assay relative to comparison analogues: higher activity
  P388 Assay ED50: 3.6 nM

From patent publication US8497385B2, “Bryostatin analogues, synthetic methods and uses” (The Board of Trustees of the Leland Stanford Junior …, priority 2007, dated 2013)
